The target in assay [1] is T1, CNR2 (also known as CB2) (Homo sapiens, UniProt P34972).
T1 construct: β-galactosidase enzyme fragment (implied by the complementation read-out)
As to the kind of experiment: cAMP competitive inhibition immunoassay (HitHunter), CNR2 activation. The note with it: CNR2, cAMP assay. The assay is classed as cell-based. In general terms: Changes in cAMP serve as a functional read-out for many G protein-coupled receptors.

Amino acid sequences for entries named in this document (tags omitted).
UniProt P34972, whole entry, species assumed: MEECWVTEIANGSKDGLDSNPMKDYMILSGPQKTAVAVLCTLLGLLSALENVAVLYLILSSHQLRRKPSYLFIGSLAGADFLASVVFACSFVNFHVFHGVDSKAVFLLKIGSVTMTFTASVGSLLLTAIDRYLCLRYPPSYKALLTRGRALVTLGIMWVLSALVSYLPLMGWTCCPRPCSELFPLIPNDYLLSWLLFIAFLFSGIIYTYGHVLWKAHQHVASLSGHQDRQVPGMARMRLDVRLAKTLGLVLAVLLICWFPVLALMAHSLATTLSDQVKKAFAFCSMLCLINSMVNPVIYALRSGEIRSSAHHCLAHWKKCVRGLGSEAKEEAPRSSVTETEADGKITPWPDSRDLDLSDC

Assay [2] deals with T1, CNR2 (also known as CB2). As to the kind of experiment: β-arrestin GPCR assay (PathHunter), CNR2 activation. It counts as cell-based. The note with it: CNR2, β-arrestin recruitment. On the technique in general: Activated receptors often draw arrestin, which recruitment assays turn into a signal.

Turning to (−)-cannabidiol [CBD], the concentration giving a half-maximal response (EC50) on CNR2 (also known as CB2) [1] and at CNR2 (also known as CB2) [2] was greater than 16.7 µM throughout.

(Values after US10806707B2, “Cannabis oil compositions and methods for preparation thereof” (priority 2015, dated 2020).)
